Values of other authors as cited in patent US20250288585A1, “SYNERGISTIC COMPOSITIONS FOR ENHANCED HAIR GROWTH AND METHODS FOR TREATING HAIR LOSS” (The Johns Hopkins University, priority 2024, published 2025).
Read-outs that look alike come from different tables or passages of the source.

Key:
[1] = topical application

Nc1cc(N2CCCCC2)nc(N)[n+]1[O-] [minoxidil]
increase in minoxidil absorption (2% topical minoxidil solution twice daily for 20 days with once-daily 0.05% tretinoin cream): increased nearly threefold
increase in minoxidil absorption (2% topical minoxidil solution twice daily for 20 days with once-daily vehicle control cream): 1.3 fold
fraction of topical minoxidil absorbed through the skin [1]: Approximately 1.4%
